# The other results are listed elsewhere or left out. Activity calls are given as the source filed them.
# System: Adrenergic alpha 1 (non-selective)
# Assay: PubChem AID 652083
# Conditions: CEREP radioligand binding panel, % inhibition at 10 uM, hits give high values
structure (smiles),measurement,value
COC(=O)c1cc(Br)cnc1N1CCC(NC2CCCCC2)C(O)C1 (stereo unspecified),inhibition of specific binding,inactive: 1%
